Assay results taken from patent US9758561B2 (priority 2014, dated 2017).
Where two headings read alike, the source gives them in different places.

Amino acid sequences for entries named in this document (tags omitted). Residues count along the entry.
UniProt P43220, 24-463: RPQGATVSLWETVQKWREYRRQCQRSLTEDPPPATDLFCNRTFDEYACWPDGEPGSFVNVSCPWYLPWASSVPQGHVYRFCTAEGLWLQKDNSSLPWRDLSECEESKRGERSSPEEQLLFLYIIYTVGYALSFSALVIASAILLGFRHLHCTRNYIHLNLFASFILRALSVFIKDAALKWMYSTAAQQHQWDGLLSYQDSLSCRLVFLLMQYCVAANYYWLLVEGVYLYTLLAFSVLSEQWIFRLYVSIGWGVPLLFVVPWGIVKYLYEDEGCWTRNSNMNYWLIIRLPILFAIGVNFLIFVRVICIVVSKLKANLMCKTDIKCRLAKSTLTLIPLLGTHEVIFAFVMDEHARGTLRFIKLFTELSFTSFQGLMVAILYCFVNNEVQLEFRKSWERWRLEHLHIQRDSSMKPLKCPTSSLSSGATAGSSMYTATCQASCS

Experiments:
human GLP-1 receptor = biological target: T1, human GLP-1 receptor (Homo sapiens, UniProt P43220); test: cAMP response of HEK-293 cells stably expressing human GLP-1 receptor (HTRF); type: cell-based
T1 construct: expressed in transfected cells; host or cells: HEK-293
Method: For preparation, cells were split into T175 culture flasks and grown overnight to near confluency in medium (DMEM/10% FBS). Medium was then removed and cells washed with PBS lacking calcium and magnesium, followed by proteinase treatment with accutase (Sigma-Aldrich cat. no. A6964). Detached cells were washed and resuspended in assay buffer (1×HBSS; 20 mM HEPES, 0.1% BSA, 2 mM IBMX) and cellular density determined. They were then diluted to 400000 cells/ml and 25 μl-aliquots dispensed into the wells of 96-well plates. For measurement, 25 μl of test compound in assay buffer was added to the wells, followed by incubation for 30 minutes at room temperature. […] Potencies of peptidic compounds at the GLP-1, glucagon and GIP receptors were determined by exposing cells expressing human glucagon receptor (hGlucagon R), human GIP receptor (hGIP-R) or human GLP-1 receptor (hGLP-1R) to the listed compounds at increasing concentrations and measuring the formed cAMP as described in Methods.

[1] = Stability testing in solution, 7 days at 40° C. (HPLC-UV); type: physicochemical
Method: After that time course, the sample was centrifuged for 20 min at 4500 rpm and 0.2 μL of the supernatant were analysed with HPLC-UV.
For determination of the amount of the remaining peptide, the peak areas of the target compound at t0 and t7 were compared, resulting in “% remaining peptide”, following the equation % remaining peptide=[(peak area peptide t7)×100]/peak area peptide t0.
The stability is expressed as “% remaining peptide”.

[2] = Solubility testing in buffer (HPLC-UV); type: physicochemical; conditions: target concentration 10 mg/ml
Method: Prior to the testing of solubility and stability of a peptide batch, its purity (HPLC-UV) was determined. […] Therefore, solutions from solid samples were prepared in different buffer systems with a concentration of 10 mg/mL compound based on the previously determined % purity. HPLC-UV was performed after 2 h of gentle agitation from the supernatant, which was obtained by 20 min of centrifugation at 4500 rpm. […] This analysis also served as starting point (t0) for the stability testing.

With CCCCCCCCCCCCCCCC(=O)N[C@@H](CCC(=O)N[C@@H](CCC(=O)NCCCC[C@H](NC(=O)[C@H](CCC(N)=O)NC(=O)[C@H](CCCCN)NC(=O)[C@H](CO)NC(=O)[C@H](CC(C)C)NC(=O)[C@H](CC(=O)O)NC(=O)[C@H](CO)NC(=O)[C@@H](NC(=O)[C@H](Cc1ccccc1)NC(=O)[C@@H](NC(=O)CNC(=O)[C@H](CCC(N)=O)NC(=O)[C@@H](CO)NC(=O)[C@@H](N)Cc1c[nH]cn1)[C@@H](C)O)[C@@H](C)O)C(=O)N[C@@H](CC(=O)O)C(=O)N[C@@H](CCC(=O)O)C(=O)N[C@@H](CCC(=O)O)C(=O)N[C@@H](C)C(=O)N[C@@H](C)C(=O)N[C@@H](CCCNC(=N)N)C(=O)N[C@@H](CC(C)C)C(=O)N[C@@H](Cc1ccccc1)C(=O)N[C@H](C(=O)N[C@@H](CCC(=O)O)C(=O)N[C@@H](Cc1c[nH]c2ccccc12)C(=O)N[C@@H](CC(C)C)C(=O)NC(C)(C)C(=O)N[C@@H](CCCCN)C(=O)NCC(=O)NCC(=O)N1CCC[C@H]1C(=O)N[C@@H](CO)C(=O)N[C@@H](CO)C(=O)NCC(=O)N[C@@H](C)C(=O)N1CCC[C@H]1C(=O)N1CCC[C@H]1C(=O)N1CCC[C@H]1C(=O)N[C@@H](CO)C(N)=O)[C@@H](C)CC)C(=O)O)C(=O)O [SEQ ID NO: 19, H-dSer-Q-G-T-F-T-S-D-L-S-K-Q-K(γE-γE-x53)-D-E-E-A-A-R-L-F-I-E-W-L-Aib-K-G-G-P-S-S-G-A-P-P-P-S-NH2] the EC50 (human GLP-1 receptor) was 2 pM, the “Stability pH 4.5” value ([1]; pH 4.5, 7 days at 40° C. in solution) was 96.0 % remaining peptide and the “Stability pH 7.4” value ([1]; pH 7.4, 7 days at 40° C. in solution) was 96.0 % remaining peptide. For the same molecule, the solubility at 2 h ([2]; pH 4.5, read-out: solubility pH 4.5) was > 8000 µg/mL and the solubility at 2 h ([2]; pH 7.4, read-out: solubility pH 7.4) was > 8000 µg/mL.
